Patent US8603466 (KING S COLLEGE LONDON, dated 2013)

Target: human TSHR on stably transfected CHO cells (human) (UniProt P16473)
Assay: cell-based or functional assay

- TSH dose giving maximal cAMP stimulation, NaCl containing buffer: 40 µU/ml
- cAMP response to a sub-saturating dose of bTSH, physiological isotonic medium: 157 pmol/ml
- cAMP response to a sub-saturating dose of bTSH, salt free medium: 164 pmol/mL
Substance: Bovine TSH (bTSH, Sigma-Aldrich) (from UniProt P01217 25-120; P01223 21-132) (ligand)
